Measurements published in PubChem BioAssay AID1778 (Sanford-Burnham Center for Chemical Genomics, 2009).
Some of the results follow. Entries with a potency or affinity are not part of this list. Active and inactive are the calls of the source. Rule as the data show it: active = inhibition above about 50%; inactive = the rest.

Amino acid sequences for entries named in this document (tags omitted). A change or cut given only in a name is not applied to a line headed by its entry.
UniProt P41145: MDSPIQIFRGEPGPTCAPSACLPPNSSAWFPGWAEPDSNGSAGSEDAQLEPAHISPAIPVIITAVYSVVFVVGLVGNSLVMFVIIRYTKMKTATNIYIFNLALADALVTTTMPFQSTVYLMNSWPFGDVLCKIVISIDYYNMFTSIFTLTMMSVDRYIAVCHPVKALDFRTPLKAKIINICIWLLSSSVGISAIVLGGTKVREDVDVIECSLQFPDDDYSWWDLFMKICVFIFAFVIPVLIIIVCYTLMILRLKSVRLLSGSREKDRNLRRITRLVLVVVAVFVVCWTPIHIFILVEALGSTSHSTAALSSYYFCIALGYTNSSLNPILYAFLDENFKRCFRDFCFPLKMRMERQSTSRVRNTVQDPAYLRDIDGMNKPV

Each compound was assayed against Kappa-type opioid receptor (Homo sapiens) (UniProt P41145) (assay: kappa opioid receptor blockers – cell-based, luminescence, uHTS (AID 1778)). Conditions: KOR beta-arrestin recruitment, antagonist mode, at 10 µM, hits give high values.

Compound | inhibition
Cc1nc2ccccc2n1CC(=O)N/N=C/c1cccs1 | inactive: -3.9%
COC(=O)c1ccccc1NC(=O)Cn1cnc2cc(C)c(C)cc21 | inactive: 4.2%
O=[N+]([O-])c1cc([N+](=O)[O-])c(CCNc2ccccc2)c([N+](=O)[O-])c1 | inactive: 23.3%
CCc1nc2c(n1)c1c(non1O)c1c2no[n+]1[O-] | inactive: 5.4%
Cc1csc2ncnc(NC3CCN(Cc4ccccc4)CC3)c12 | inactive: -20.3%
Cn1c(=O)[nH]c(=O)c2c1nc(CN1CCN(Cc3ccccc3)CC1)n2CC(N)=O | inactive: 9.9%
Cc1ccc(OCC(O)Cn2c(=N)n(CCN3CCOCC3)c3ccccc32)cc1 (stereo not given) | inactive: 4.8%
COC(=O)c1ccc(NC(=O)Cn2c(-c3nonc3N)nc3ccccc32)cc1 | inactive: 9.4%
N=c1n(CCN2CCCCC2)c2ccccc2n1CC(O)COc1ccccc1 (stereo not given) | inactive: 3.7%
COC(=O)c1sccc1NC(=O)Cn1cnc2c1c(=O)n(C)c(=O)n2C | inactive: 12.6%
N#CCCNC(=O)Cn1c(COc2ccc(Cl)cc2)nc2ccccc21 | inactive: -10.7%
Cn1c(=O)[nH]c(=O)c2c1nc1n2CCN1Cc1ccccc1 | inactive: 0.9%
Cn1ncc([N+](=O)[O-])c1C(=O)Nc1nc2ccccc2n1CCN1CCCCC1 | inactive: 11.5%
CC(=O)N1C2C3N(C(C)=O)C1C1N(C(C)=O)C(C(N1C(C)=O)N3C(C)=O)N2C(C)=O | inactive: -6.6%
CC#CCCC(=O)N1C=Cc2ccccc2C1C#N (stereo not given) | inactive: -4.8%
O=[N+]([O-])c1cccc2n[nH]nc12 | inactive: -1.6%
CCOc1ccccc1OCC(=O)NNC(=O)Cn1cnc2c1c(=O)n(C)c(=O)n2C | inactive: 4.5%
Nc1nonc1-c1nc2ccccc2n1CC(=O)N1CCCCC1 | inactive: 24.9%
Cc1ccc(C)c(CN2CCC(n3nnc4cc(F)ccc43)CC2)c1 | inactive: -46.4%
CC(C)C[C@H](NC(=O)N1CCn2c1nc1ccccc12)C(=O)NC1CCCCC1 | inactive: -15.6%
O=C(Nc1ccc2c(c1)nc1n2CCN(Cc2ccccc2)C1)NC1CCCCC1 | inactive: 24.2%
COc1ccc(/C([O-])=C(/C(=S)Nc2ccc(C)c(C)c2)n2c[n+](C)c3ccccc32)cc1OC | inactive: -10.9%
CCN(/C(=N/P(=O)(N1CCOCC1)N1CCOCC1)N1CCOCC1)c1ccc(OC)cc1 | inactive: 2.2%

Compound | inhibition
CCOC(=O)c1c(NC(=O)Cn2c(C)nc3ccccc32)sc2c1CCC2 | inactive: -10.4%
COc1ccc(N2CCn3c2nc2c3c(=O)n(CCCc3ccccc3)c(=O)n2C)cc1 | inactive: 4.9%
Nc1ccc([As](=O)(O)c2ccc(N)cc2)cc1 | inactive: -4.7%
c1ccc(CCn2nnnc2CN2CCC(n3nnc4ccccc43)CC2)cc1 | inactive: 11.2%
CCC(CC)NC(=O)Cn1c(C(C)NC(C)=O)nc2ccccc21 (stereo not given) | inactive: 15.5%
C[C@H](NC(=O)N1CCn2c1nc1ccccc12)C(=O)NC1CCCCC1 | inactive: 0.8%
FC(F)(F)c1ccc2c(c1)nnn2C1CCN(Cc2nnnn2Cc2ccccc2)CC1 | inactive: 9.4%
COc1ccc2nc(NC(=O)Cn3cnc4c(=O)n(C)c(=O)n(C)c43)sc2c1 | inactive: -25.8%
CCC(=O)Nc1ccc(NC(=S)NC(=O)/C=C/c2ccccc2)cc1 | inactive: -18.4%
Cc1ccc(-c2nnc(N3CCN(C(=O)Cn4c(=O)n(C)c5ccccc54)CC3)c3ccccc23)cc1 | inactive: -9.5%
CCc1ccc(C(C)NC(=O)Cn2cnc3c(=O)n(C)c(=O)n(C)c32)cc1 (stereo not given) | inactive: 55.6%
Cc1ccc2c(c1)C1CN(C)CCC1N2C(=O)Cn1cnc2c1c(=O)n(C)c(=O)n2C (stereo not given) | inactive: -26.7%
C[N+]1=C2C=CC=CC=C2SC12C([N+](=O)[O-])=CC([N+](=O)[O-])=C[C-]2[N+](=O)[O-] (stereo not given) | active: 101%
O=C1CC(C(=O)Nc2cccc(F)c2)n2c(nc3ccccc32)N1 (stereo not given) | inactive: 24.7%
CC1CCN(C(=O)Oc2c(Cl)cc(Cl)c3cccnc23)CC1 | inactive: 1%
CNC(=O)Cc1nc2ccccc2n1CC(=O)Nc1cc(C)cc(C)c1 | inactive: -9.2%
CCSc1nc2ccccc2n1CC(=O)N1CCCCC1 | inactive: -5%
Cc1nc2ccccc2n1CC(=O)NC1CCCCCC1 | inactive: 6.6%
Cn1c(=O)n(CC(=O)N2CCN(c3nnc(-c4ccccc4)c4ccccc34)CC2)c2ccccc21 | inactive: -21.6%
CCN(CC)CCn1c(NCc2cccc(OC)c2OC)nc2ccccc21 | inactive: -20.4%
NNC(=O)Cn1c(SCc2ccccc2)nc2ccccc21 | inactive: -3.6%
CN1CCC(N(C)c2ncnc3ccc(Br)cc23)CC1 | inactive: 9.5%
Cn1c(=O)c2c(ncn2CC(=O)N2CCN(c3ccc([N+](=O)[O-])cc3)CC2)n(C)c1=O | inactive: 2.8%

Compound | inhibition
CCc1nc2ccccc2n1CC(=O)N(C(C)CC)C1CCS(=O)(=O)C1 (stereo not given) | inactive: -13.2%
CN(C)C(=O)OCCc1n(C)cc[n+]1C | inactive: -30.1%
O=[N+]([O-])c1ccccc1NC1CCN(Cc2ccccc2)CC1 | inactive: -4.9%
Cc1ccc2c(c1)C1CN(C)CCC1N2C(=O)Nc1ccc(Cl)cc1 (stereo not given) | inactive: 2.1%
Cc1ccc2c(c1)C1CN(C)CCC1N2C(=O)c1cccnc1Cl (stereo not given) | inactive: 14.1%
COc1ccc(N2CCn3c2nc2c3c(=O)n(CCc3ccccc3)c(=O)n2C)cc1 | inactive: -32.9%
O=C(Cn1cnc2ccccc21)NCCCN1CCOCC1 | inactive: -2.2%
Cn1c(=O)c2ncn(CC(=O)NC3CCCCCC3)c2n(C)c1=O | inactive: -10.9%
CC(C)[C@H](NC(=O)N1CCn2c1nc1ccccc12)C(=O)NCc1ccc2c(c1)OCO2 | inactive: -17.5%
Cn1c(=O)n(Cc2ccc(Cl)cc2)c(=O)c2c1nc1n2CCN1Cc1ccco1 | inactive: -23.7%
Cn1c(=O)c2c(nc(NCCc3ccccc3)n2CC(=O)NCCc2ccccc2)n(C)c1=O | inactive: 20.8%
Cc1cc(NC(=O)CSc2nc3ccccc3n2CC(=O)N2CCCCC2)no1 | inactive: -1.3%
O=C(CCCN1CCC2(CC1)C(=O)NCN2c1ccccc1)c1ccc(F)cc1 | inactive: -57.6%
Cn1c(=O)c2c(nc(CN3CCN(c4ccc(F)cc4)CC3)n2CCN2CCOCC2)n(C)c1=O | inactive: 16.2%
COc1cc(NC(=O)Cn2c(-c3cncs3)nc3ccccc32)cc(OC)c1OC | inactive: -30.2%
N#CCC(=O)N/N=C\c1ccccc1OC/C=C/c1ccccc1 | inactive: 1.7%
Cc1ccc2c(c1)C1CN(C)CCC1N2CC(=O)N(C)c1ccccc1 (stereo not given) | inactive: 26.7%
CCOC(=O)Nc1ccc2c(c1)nc1n2CCN(CCOC)C1 | inactive: -34.2%
COc1ccc(Cc2nnc(NC(=O)Cn3cnc4c3c(=O)n(C)c(=O)n4C)s2)cc1 | inactive: -25.4%
CCN(CC)CCn1c(=N)n(CC(O)c2ccco2)c2ccccc21 (stereo not given) | inactive: -5.9%
C=CCc1cccc(CNc2nc3ccccc3n2CCN2CCOCC2)c1O | inactive: 23.5%
Cn1c(=O)[nH]c(=O)c2c1nc(CN1CCN(c3ccccc3F)CC1)n2CC(N)=O | inactive: 28.6%
Cc1nc2cc(C(F)(F)F)ccc2n1C1CCN(Cc2nnnn2Cc2ccc3c(c2)OCO3)CC1 | inactive: -138%

Compound | inhibition
Cn1c(=O)[nH]c(=O)c2c1nc(NC1CCCCC1)n2CC(=O)NC1CCCCC1 | inactive: 29.9%
CC1CN(Cc2nc3c(c(=O)[nH]c(=O)n3C)n2CC(N)=O)CC(C)O1 (stereo not given) | inactive: -0.7%
Cc1ccc(CNC(=O)CCNC(=O)N2CCn3c2nc2ccccc23)cc1 | inactive: -40.7%
COc1ccc(CNc2nc3ccccc3n2CCN2CCCCC2)c(OC)c1 | inactive: 28.8%
c1ccc(CN2CCC3(CC2)Nc2ccccc2S3)cc1 | inactive: 18%
COc1ccc(N2CCn3c2nc2c3c(=O)n(CCCc3ccccc3)c(=O)n2C)c(OC)c1 | inactive: -25.9%
COc1ccccc1CNc1nc2ccccc2n1CCN1CCCCC1 | inactive: -14.8%
CCSc1nnc(NC(=O)Cn2cnc3c2c(=O)n(C)c(=O)n3C)s1 | inactive: -29.1%
COc1ccc(CNC(=O)Cn2cnc3c(=O)n(C)c(=O)n(C)c32)cc1 | inactive: -86.9%
Cc1ccc2c(c1)[C@@H]1CN(C)CC[C@@H]1N2S(=O)(=O)c1ccc(F)cc1 | inactive: -14.8%
O=C(Nc1cc([As](=O)(O)O)ccc1O)c1ccccc1 | inactive: 4.9%
Cn1c(=O)n(CC(=O)Nc2ccccc2)c2ccccc21 | inactive: -4.3%
O=C(c1ccco1)N1CCn2c1nc1ccccc12 | inactive: -2.3%
COc1ccc(Cc2nc3ccccc3n2CC(=O)N/N=C/c2ccccc2)cc1OC | inactive: 47.1%
CC(C)(C)NC(=O)Cn1c(SCC(=O)N2CCCCCC2)nc2ccccc21 | inactive: 8.4%
CSCC[C@H](NC(=O)N1CCn2c1nc1ccccc12)C(=O)NCc1ccco1 | inactive: -25.9%
Cc1ccc2c(c1)C1CN(C)CCC1N2C(=O)Nc1cccc(C(F)(F)F)c1 (stereo not given) | inactive: -33.4%
O=[N+]([O-])c1cc(C(F)(F)F)ccc1NC1CCN(Cc2ccccc2)CC1 | inactive: 9.9%
CC(C)C[C@H](NC(=O)N1CCn2c1nc1ccccc12)C(=O)NCC1CCCO1 (stereo not given in full) | inactive: -41.1%
O=[N+]([O-])c1ncn(CCn2ncnc2[N+](=O)[O-])n1 | inactive: 6.2%
CCCn1c(=O)[nH]c(=O)c2c1nc(-c1ccc(OC(F)F)cc1)n2CCN1CCOCC1 | inactive: -21.6%
